Measured values from PubChem BioAssay AID602329 (Broad Institute, 2012).
The list shows a part of the results, in another mix than the full data. Calls of active or inactive are those of the source.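 Rule for the calls: active = mean normalized replicate activity at least 40 and at least half of replicates scoring 40 or more; inconclusive = only one of the two criteria met; inactive = mean below 40 and under half of replicates reaching 40.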

Sequences of proteins named here, by UniProt entry; tags and fusion partners are left off.
UniProt Q92698, whole entry: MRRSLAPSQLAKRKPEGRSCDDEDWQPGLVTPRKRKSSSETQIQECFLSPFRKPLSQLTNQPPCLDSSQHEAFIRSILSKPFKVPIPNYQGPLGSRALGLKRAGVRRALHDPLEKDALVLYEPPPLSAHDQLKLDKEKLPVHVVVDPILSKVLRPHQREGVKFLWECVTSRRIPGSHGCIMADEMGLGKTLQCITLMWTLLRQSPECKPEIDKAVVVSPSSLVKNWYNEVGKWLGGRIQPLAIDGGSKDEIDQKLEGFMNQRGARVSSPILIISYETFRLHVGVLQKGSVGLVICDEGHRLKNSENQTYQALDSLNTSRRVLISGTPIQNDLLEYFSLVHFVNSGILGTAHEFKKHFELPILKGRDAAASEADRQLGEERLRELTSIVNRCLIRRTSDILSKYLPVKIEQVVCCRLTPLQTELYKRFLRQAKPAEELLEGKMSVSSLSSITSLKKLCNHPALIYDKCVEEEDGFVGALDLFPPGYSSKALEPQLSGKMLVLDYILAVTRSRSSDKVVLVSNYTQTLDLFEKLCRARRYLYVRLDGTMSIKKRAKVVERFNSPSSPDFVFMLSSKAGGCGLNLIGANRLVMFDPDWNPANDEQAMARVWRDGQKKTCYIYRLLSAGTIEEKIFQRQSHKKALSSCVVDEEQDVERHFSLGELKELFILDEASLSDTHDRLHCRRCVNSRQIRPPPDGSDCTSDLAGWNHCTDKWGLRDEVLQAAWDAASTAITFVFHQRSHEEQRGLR

Molecular target: DNA repair and recombination protein RAD54-like (Homo sapiens) (UniProt Q92698)
Experiment: RAD54 Holliday junction migration blockers – biochemical, fluorescence, single point, primary screen (AID 602329);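 note: 0% = median of neutral control wells and 100% = median of positive control wells; inhibitors cause a drop in the FAM fluorescence signal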
Settings: RAD54 Holliday junction branch migration, FAM/BHQ fluorescence; at 10.4 µM; active compounds read high

CN1CCC(Nc2ccc(F)c(Cl)c2)CC1 was tested. Which inhibition did it give?
Its inhibition is inactive: -6.91%.

CCOc1ncccc1C(=O)NCC1(N2CCOCC2)CCCCC1 was tested. Which inhibition did it give?
The inhibition was inactive: -15.8%.

Cn1c(=O)[nH]cc(N(CCCl)CCCl)c1=O was tested. Which inhibition did it give?
The inhibition was inactive: -10.8%.

How did the inhibition turn out when O=C(NCC1(N2CCCCC2)CCCCC1)c1ccco1 was run?
Its inhibition is inactive: -5.37%.

Which inhibition does the source give for COc1ccc(C(c2nnnn2C2CCCCC2)N2CCC(n3c(=O)[nH]c4ccccc43)CC2)cc1 (configuration not stated) here?
Its inhibition is inactive: -2.64%.

Which inhibition does the source give for CC(C)(C)n1nnnc1C(c1ccnc2ccccc12)N1CCC(n2c(=O)[nH]c3ccccc32)CC1 (configuration not stated) here?
Its inhibition is inactive: 2.18%.

How did the inhibition turn out when Cc1ccccc1NC1(C#N)CCN(Cc2ccccc2)CC1 was run?
The inhibition was inactive: -9.24%.

Which inhibition does the source give for Cc1ccc(NC2(C#N)CCN(Cc3ccccc3)CC2)cc1 here?
Its inhibition is inactive: -5.35%.

For Fc1ccccc1NC1CCN(Cc2ccccc2)CC1, which inhibition is on record?
Its inhibition is inactive: 1.69%.

How did the inhibition turn out when Cc1ccc(C(=O)NCC2(N3CCCCC3)CCCCC2)o1 was run?
The inhibition was inactive: -1.69%.

How did the inhibition turn out when COc1cc(OC)cc(C(=O)NCC2(N3CCCCC3)CCCCC2)c1 was run?
Its inhibition is inactive: -1.26%.

O=c1[nH]c2ccccc2n1C1CCN(C(c2ccnc3ccccc23)c2nnnn2C2CCCCC2)CC1 (configuration not stated) was tested. Which inhibition did it give?
The inhibition was inactive: 9.87%.

How did the inhibition turn out when CCC(c1nnnn1C1CCCCC1)N1CCC(n2c(=O)[nH]c3ccccc32)CC1 (configuration not stated) was run?
Its inhibition is inactive: 8.4%.

How did the inhibition turn out when COc1cccc(C(c2nnnn2C2CCCCC2)N2CCC(n3c(=O)[nH]c4ccccc43)CC2)c1OC (configuration not stated) was run?
The inhibition was inactive: 5.94%.

For CC(=O)N(c1ccccc1)C1CCNCC1, which inhibition is on record?
Its inhibition is inactive: 7.9%.

With CC(C)(C)n1nnnc1C(c1cccc2ccccc12)N1CCC(n2c(=O)[nH]c3ccccc32)CC1 (configuration not stated) as the molecule, how does the inhibition read?
The inhibition was inactive: 1.99%.

With O=c1[nH]c2ccccc2n1C1CCN(C(c2ccccc2)c2nnnn2C2CCCC2)CC1 (configuration not stated) as the molecule, how does the inhibition read?
The inhibition was inactive: -6.79%.

CCCN1CCC(Nc2cc(OC)cc(OC)c2)CC1 was tested. Which inhibition did it give?
The inhibition was inactive: 13.6%.

With c1ccc(CN2CCC(Nc3ccccc3)CC2)cc1 as the molecule, how does the inhibition read?
Its inhibition is inactive: -4.77%.

CN(C)C1(CNC(=O)c2cccc(C#N)c2)CCCCC1 was tested. Which inhibition did it give?
The inhibition was inactive: 0.695%.

CC(C)(C)OC(=O)N1CCC(N(C(=O)c2ccccc2)c2ccc(Cl)cc2)CC1 was tested. Which inhibition did it give?
Its inhibition is inactive: 8.26%.

N#Cc1ccc(C(=O)NCC2(N3CCCCC3)CCCCC2)cc1 was tested. Which inhibition did it give?
The inhibition was inactive: -1.62%.

Which inhibition does the source give for CCCCn1nnnc1C(c1cccc(OC)c1OC)N1CCC(n2c(=O)[nH]c3ccccc32)CC1 (configuration not stated) here?
The inhibition was inactive: 3.5%.

Which inhibition does the source give for O=c1[nH]c2ccccc2n1C1CCN(C(c2cccs2)c2nnnn2C2CCCC2)CC1 (configuration not stated) here?
The inhibition was inactive: 6.6%.

For N/C(=N\O)c1c(N)no[n+]1[O-], which inhibition is on record?
Its inhibition is inactive: -5.1%.

How did the inhibition turn out when CCOC(=O)N1CCC(Nc2ccc(C)cc2)CC1 was run?
Its inhibition is inactive: -3.22%.

COc1cccc(C(c2nnnn2C(C)(C)C)N2CCC(n3c(=O)[nH]c4ccccc43)CC2)c1OC (configuration not stated) was tested. Which inhibition did it give?
The inhibition was inactive: -4.81%.

How did the inhibition turn out when O=c1[nH]c2ccccc2n1C1CCN(C(c2ccnc3ccccc23)c2nnnn2C2CCCC2)CC1 (configuration not stated) was run?
The inhibition was inactive: -2.33%.

For O=c1[nH]c2ccccc2n1C1CCN(C(c2cccs2)c2nnnn2C2CCCCC2)CC1 (configuration not stated), which inhibition is on record?
The inhibition was inactive: -2.55%.

With O=C(NCC1(N2CCOCC2)CCCCC1)c1cc(Br)ccc1Cl as the molecule, how does the inhibition read?
The inhibition was inactive: -5.93%.

For COc1cc(C(=O)NCC2(N3CCOCC3)CCCCC2)cc(OC)c1C, which inhibition is on record?
Its inhibition is inactive: -5.1%.

With CCCCn1nnnc1C(c1ccccc1)N1CCC(n2c(=O)[nH]c3ccccc32)CC1 (configuration not stated) as the molecule, how does the inhibition read?
Its inhibition is inactive: 6.61%.
